In patent US7632933B2, “Corticotropin releasing factor 2 receptor agonists” (priority 2002, dated 2009):

Experiments:
CRF1R = biological target: T1, CRF1R (Homo sapiens, UniProt P34998); test: CRF1R agonist activity (EC50 and Emax), called comparative CRF binding; type: cell-based
T1 sequence (P34998 24-415): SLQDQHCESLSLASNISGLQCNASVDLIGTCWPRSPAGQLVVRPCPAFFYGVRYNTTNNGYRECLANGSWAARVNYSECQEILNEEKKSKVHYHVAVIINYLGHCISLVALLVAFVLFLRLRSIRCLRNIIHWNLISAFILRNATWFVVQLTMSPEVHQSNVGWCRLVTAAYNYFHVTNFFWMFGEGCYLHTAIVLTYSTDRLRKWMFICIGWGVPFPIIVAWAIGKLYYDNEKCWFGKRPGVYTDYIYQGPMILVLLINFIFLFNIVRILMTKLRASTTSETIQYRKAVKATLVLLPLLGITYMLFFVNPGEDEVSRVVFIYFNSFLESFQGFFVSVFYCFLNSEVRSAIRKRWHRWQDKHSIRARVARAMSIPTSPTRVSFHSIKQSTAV
Outline: (§1)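 Agonism measured through CRE-linked reporter expression or lysate cAMP after peptide treatment of CRF1R- or CRF2R-expressing cells, compared against vehicle-treated cells; background from a co-expressed non-target CRFR is subtracted.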

CRF2R = biological target: T2, CRF2R (Homo sapiens, UniProt Q13324); test: CRF2R agonist activity (EC50 and Emax), called comparative CRF binding; type: cell-based
T2 sequence (Q13324 1-411): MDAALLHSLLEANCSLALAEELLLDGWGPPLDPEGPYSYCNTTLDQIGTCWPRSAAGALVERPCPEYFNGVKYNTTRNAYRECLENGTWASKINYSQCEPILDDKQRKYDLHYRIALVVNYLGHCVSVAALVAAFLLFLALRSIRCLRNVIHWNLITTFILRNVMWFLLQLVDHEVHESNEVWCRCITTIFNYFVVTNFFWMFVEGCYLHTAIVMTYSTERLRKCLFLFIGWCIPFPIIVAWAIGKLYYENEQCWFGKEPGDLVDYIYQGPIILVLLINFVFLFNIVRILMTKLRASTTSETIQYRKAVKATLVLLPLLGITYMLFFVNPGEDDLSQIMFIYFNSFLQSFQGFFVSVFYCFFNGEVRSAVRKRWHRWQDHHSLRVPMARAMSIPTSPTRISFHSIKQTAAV
Outline: as §1

Row | SMILES | EC50 (CRF1R; CRF1R EC50 (nM), CRF1R) | EC50 (CRF2R; CRF2R EC50 (nM), CRF2R) | EC50 (CRF1R; CRF1R EC50) | EC50 (CRF2R; CRF2R EC50)
1 | CC[C@H](C)[C@H](NC(=O)[C@@H](NC(=O)[C@H](CC(=O)O)NC(=O)[C@H](CC(C)C)NC(=O)[C@H](CC(C)C)NC(=O)[C@H](CC(C)C)NC(=O)[C@H](CCCNC(=N)N)NC(=O)[C@H](CC(N)=O)NC(=O)[C@H](CC(N)=O)NC(=O)[C@H](C)NC(=O)[C@H](C)NC(=O)[C@H](CCC(N)=O)NC(=O)[C@H](CCC(N)=O)NC(=O)[C@H](CCCCN)NC(=O)[C@H](CCC(=O)O)NC(=O)[C@H](CCCCN)NC(=O)[C@H](CCC(=O)O)NC(=O)[C@H](CCC(N)=O)NC(=O)[C@H](CCCCN)NC(=O)[C@H](CCC(=O)O)NC(=O)[C@@H](NC(=O)[C@H](CCC(=O)O)NC(=O)[C@@H](NC(=O)[C@H](CCSC)NC(=O)[C@H](CCCCN)NC(=O)[C@H](CCCNC(=N)N)NC(=O)[C@H](CC(C)C)NC(=O)[C@H](CC(C)C)NC(=O)[C@H](Cc1ccc(O)cc1)NC(=O)[C@H](CCC(N)=O)NC(=O)[C@@H]1CCCN1C(=O)[C@H](CC(C)C)NC(=O)[C@H](CC(=O)O)NC(=O)[C@@H](NC(=O)[C@H](CO)NC(=O)[C@@H](NC(=O)[C@@H]1CCCN1C(=O)[C@@H]1CCCN1C(=O)CNC(=O)[C@@H]1CCC(=O)N1)[C@@H](C)CC)[C@@H](C)CC)[C@@H](C)CC)[C@@H](C)CC)[C@@H](C)O)C(N)=O [compound 27] | 325 nM | 10.7 nM |  | 
2 | CC[C@H](C)[C@H](NC(=O)[C@@H](NC(=O)[C@H](CC(=O)O)NC(=O)[C@H](CC(C)C)NC(=O)[C@H](CC(C)C)NC(=O)[C@H](CC(C)C)NC(=O)[C@H](CCCNC(=N)N)NC(=O)[C@H](CC(N)=O)NC(=O)[C@H](CC(N)=O)NC(=O)[C@H](C)NC(=O)[C@H](C)NC(=O)[C@H](CCC(N)=O)NC(=O)[C@H](CCC(N)=O)NC(=O)[C@H](CCCCN)NC(=O)[C@H](CCC(=O)O)NC(=O)[C@H](CCCCN)NC(=O)[C@H](CCC(=O)O)NC(=O)[C@H](CCC(N)=O)NC(=O)[C@H](CCCCN)NC(=O)[C@H](CCC(=O)O)NC(=O)[C@@H](NC(=O)[C@H](CCC(=O)O)NC(=O)[C@@H](NC(=O)[C@H](CCSC)NC(=O)[C@H](CCCCN)NC(=O)[C@H](CCCNC(=N)N)NC(=O)[C@H](CC(C)C)NC(=O)[C@H](CC(C)C)NC(=O)[C@H](Cc1ccc(O)cc1)NC(=O)[C@H](CC(=O)O)NC(=O)[C@@H]1CCCN1C(=O)[C@H](CC(C)C)NC(=O)[C@H](CC(=O)O)NC(=O)[C@@H](NC(=O)[C@H](CO)NC(=O)[C@@H](NC(=O)[C@@H]1CCCN1C(=O)[C@@H]1CCCN1C(=O)CNC(=O)[C@@H]1CCC(=O)N1)[C@@H](C)CC)[C@@H](C)CC)[C@@H](C)CC)[C@@H](C)CC)[C@@H](C)O)C(N)=O [compound 54] | ≥ 1000 nM | ≥ 100 nM |  | 
3 | CC[C@H](C)[C@H](NC(=O)[C@@H](NC(=O)[C@H](CC(=O)O)NC(=O)[C@H](CC(C)C)NC(=O)[C@H](CC(C)C)NC(=O)[C@H](CC(C)C)NC(=O)[C@H](CCCNC(=N)N)NC(=O)[C@H](CC(N)=O)NC(=O)[C@H](CC(N)=O)NC(=O)[C@H](C)NC(=O)[C@H](C)NC(=O)[C@H](CCC(N)=O)NC(=O)[C@H](CCC(N)=O)NC(=O)[C@H](CCCCN)NC(=O)[C@H](CCC(=O)O)NC(=O)[C@H](CCCCN)NC(=O)[C@H](CCC(=O)O)NC(=O)[C@H](CCC(N)=O)NC(=O)[C@H](CCCCN)NC(=O)[C@H](CCC(=O)O)NC(=O)[C@@H](NC(=O)[C@H](CCC(=O)O)NC(=O)[C@@H](NC(=O)[C@@H](NC(=O)[C@H](CCCCN)NC(=O)[C@H](CCCNC(=N)N)NC(=O)[C@H](CC(C)C)NC(=O)[C@H](CC(C)C)NC(=O)[C@H](CCC(N)=O)NC(=O)[C@H](Cc1ccc(O)cc1)NC(=O)[C@@H]1CCCN1C(=O)[C@H](CC(C)C)NC(=O)[C@H](CC(=O)O)NC(=O)[C@@H](NC(=O)[C@H](CO)NC(=O)[C@@H](NC(=O)[C@@H]1CCCN1C(=O)[C@@H]1CCCN1C(=O)CNC(=O)[C@@H]1CCC(=O)N1)[C@@H](C)CC)[C@@H](C)CC)C(C)C)[C@@H](C)CC)[C@@H](C)CC)[C@@H](C)O)C(N)=O [compound 283] | 635 nM | 10.6 nM |  | 
4 | CC[C@H](C)[C@H](N)C(=O)N[C@H](C(=O)N[C@@H](CC(C)C)C(=O)N[C@@H](CO)C(=O)N[C@@H](CC(C)C)C(=O)N[C@@H](CC(=O)O)C(=O)N[C@H](C(=O)N1CCC[C@H]1C(=O)N[C@H](C(=O)NCC(=O)N[C@@H](CC(C)C)C(=O)N[C@@H](CC(C)C)C(=O)N[C@@H](CCC(N)=O)C(=O)N[C@H](C(=O)N[C@@H](CC(C)C)C(=O)N[C@@H](CC(C)C)C(=O)N[C@@H](CCC(=O)O)C(=O)N[C@@H](CCC(N)=O)C(=O)N[C@@H](C)C(=O)N[C@@H](CCCNC(=N)N)C(=O)N[C@@H](C)C(=O)N[C@@H](CCCNC(=N)N)C(=O)N[C@@H](C)C(=O)N[C@@H](C)C(=O)N[C@@H](CCCNC(=N)N)C(=O)N[C@@H](CCC(=O)O)C(=O)N[C@@H](CCC(N)=O)C(=O)N[C@@H](C)C(=O)N[C@H](C(=O)N[C@H](C(=O)N[C@@H](CC(N)=O)C(=O)N[C@@H](C)C(=O)N[C@@H](CCCNC(=N)N)C(=O)N[C@H](C(=O)N[C@@H](CC(C)C)C(=O)N[C@@H](C)C(=O)N[C@@H](CCCNC(=N)N)C(=O)N[C@H](C(N)=O)C(C)C)[C@@H](C)CC)[C@@H](C)O)[C@@H](C)O)[C@@H](C)CC)[C@@H](C)CC)C(C)C)C(C)C [hUroII, reference compound] |  |  | > 100 nM | 3.64 nM
5 | CC[C@H](C)[C@H](NC(=O)[C@@H](NC(=O)[C@H](CC(=O)O)NC(=O)[C@H](CC(C)C)NC(=O)[C@H](CC(C)C)NC(=O)[C@H](CC(C)C)NC(=O)[C@H](CCCNC(=N)N)NC(=O)[C@H](CC(N)=O)NC(=O)[C@H](CC(N)=O)NC(=O)[C@H](C)NC(=O)[C@H](C)NC(=O)[C@H](CCC(N)=O)NC(=O)[C@H](CCC(N)=O)NC(=O)[C@H](CCCCN)NC(=O)[C@H](CCC(=O)O)NC(=O)[C@H](CCCCN)NC(=O)[C@H](CCC(=O)O)NC(=O)[C@H](CCC(N)=O)NC(=O)[C@H](CCCCN)NC(=O)[C@H](CCC(=O)O)NC(=O)[C@@H](NC(=O)[C@H](CCC(=O)O)NC(=O)[C@@H](NC(=O)[C@H](CCSC)NC(=O)[C@H](CCCCN)NC(=O)[C@H](CCCNC(=N)N)NC(=O)[C@H](CC(C)C)NC(=O)[C@H](CC(C)C)NC(=O)[C@H](CO)NC(=O)[C@@H](NC(=O)[C@@H]1CCCN1C(=O)[C@H](CC(C)C)NC(=O)[C@H](CC(=O)O)NC(=O)[C@@H](NC(=O)[C@H](CO)NC(=O)[C@@H](NC(=O)[C@@H]1CCCN1C(=O)[C@@H]1CCCN1C(=O)CNC(=O)[C@@H]1CCC(=O)N1)[C@@H](C)CC)[C@@H](C)CC)[C@@H](C)CC)[C@@H](C)CC)[C@@H](C)CC)[C@@H](C)O)C(N)=O [compound 53] | > 1000 nM | > 100 nM |  | 
